This is an account of results in ChEMBL document CHEMBL1127431, “Cholinergic agents structurally related to furtrethonium. 2. Synthesis and antimuscarinic activity of a series of N-[5-[(1'-substituted-acetoxy) methyl]-2-furfuryl]dialkylamines” (J Med Chem, 1994).

Sequences of proteins named here, by UniProt entry; tags and fusion partners are left off.
UniProt P08483, whole entry: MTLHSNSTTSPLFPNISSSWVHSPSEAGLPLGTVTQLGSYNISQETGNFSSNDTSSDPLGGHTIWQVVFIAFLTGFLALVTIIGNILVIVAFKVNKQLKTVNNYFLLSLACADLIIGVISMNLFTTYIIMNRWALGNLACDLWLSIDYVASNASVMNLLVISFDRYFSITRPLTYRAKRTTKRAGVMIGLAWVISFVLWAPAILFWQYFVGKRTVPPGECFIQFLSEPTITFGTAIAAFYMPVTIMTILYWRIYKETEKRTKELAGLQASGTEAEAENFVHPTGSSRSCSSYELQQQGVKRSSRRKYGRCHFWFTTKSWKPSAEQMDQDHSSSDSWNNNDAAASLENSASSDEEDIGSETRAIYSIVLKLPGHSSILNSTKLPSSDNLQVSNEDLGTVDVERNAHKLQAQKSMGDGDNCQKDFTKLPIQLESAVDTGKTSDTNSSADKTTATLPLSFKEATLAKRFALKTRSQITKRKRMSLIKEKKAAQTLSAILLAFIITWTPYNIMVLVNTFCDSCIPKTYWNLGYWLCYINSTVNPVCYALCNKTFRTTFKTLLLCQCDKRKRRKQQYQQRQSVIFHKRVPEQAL
UniProt P08172, whole entry: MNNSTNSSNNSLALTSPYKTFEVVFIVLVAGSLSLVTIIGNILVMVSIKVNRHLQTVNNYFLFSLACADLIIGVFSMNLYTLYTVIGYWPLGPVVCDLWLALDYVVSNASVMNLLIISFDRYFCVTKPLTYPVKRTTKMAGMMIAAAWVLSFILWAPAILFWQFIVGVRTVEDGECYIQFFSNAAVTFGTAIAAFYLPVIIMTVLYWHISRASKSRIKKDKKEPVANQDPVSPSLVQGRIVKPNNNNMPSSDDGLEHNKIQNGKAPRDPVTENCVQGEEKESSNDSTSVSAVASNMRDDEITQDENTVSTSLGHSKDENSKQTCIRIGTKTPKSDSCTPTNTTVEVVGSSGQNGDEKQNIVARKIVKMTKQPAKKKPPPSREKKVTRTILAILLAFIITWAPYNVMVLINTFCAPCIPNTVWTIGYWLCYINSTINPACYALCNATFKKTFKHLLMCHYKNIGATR

Assay [1] addresses Muscarinic acetylcholine receptor M3 (Rattus norvegicus) (UniProt P08483). Nature of the assay: In vitro antimuscarinic activity against the M3 muscarinic receptor subtype in rat bladder. An outline of the steps:
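Rat urinary detrusor strips (extratrigonal, 1 cm × 2 mm), fasted overnight, isotonic recording at 1 g resting tension; 30–45 min equilibration. Cumulative furtrethonium curves in 0.5 log-unit increments, repeated until two matched, then final curve after ≥30 min with test compound. E50 by four-parameter logistic fit; pKb = log(DR−1) − log[B], mean ± SE.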

For assay [2] the target is unchanged. Description: In vitro antimuscarinic activity against the M3 muscarinic receptor subtype in rat ileum. The class given is tissue-based. A digest of the protocol: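 Rat longitudinal ileum segments (~2 cm), fasted overnight, isotonic recording at 0.5 g resting tension; 30–45 min equilibration. Cumulative furtrethonium curves in 0.5 log-unit increments, repeated until two matched, then final curve after ≥30 min with test compound. E50 by four-parameter logistic fit; pKb = log(DR−1) − log[B], mean ± SE.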

Assay [3] has as its target Muscarinic acetylcholine receptor M2 (Homo sapiens) (UniProt P08172). Description: In vitro antimuscarinic activity against the M2 muscarinic receptor subtype in guinea pig atria. Conditions: Cavia porcellus; target entry is the homologue from another species. A digest of the protocol:
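Guinea pig atria (both), fasted overnight, resting tension 1 g, force recorded; 30–45 min equilibration. Cumulative carbachol curves in 0.25 log-unit increments, repeated until two matched, then final curve after ≥30 min with test compound. E50 from four-parameter logistic fit; pKb = log(DR−1) − log[B], mean ± SE.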

A word on the pKb: it is the Kb on a negative log10 scale, so that one unit is a factor of ten. Read a low pKb as a large Kb. As to `CN(C)Cc1ccc(COC(=O)C(O)(c2ccccc2)c2ccccc2)o1`, the pKb in assay [1] stood at 6.7; in assay [2] it was 6.5; in assay [3] it was 6.7.
Consider `CC1CNCCN1Cc1ccc(COC(=O)C(O)(c2ccccc2)C2CCCCC2)o1` (stereo not given), for which the pKb is 5 in assay [1], 5.8 in assay [2] and below 5 in assay [3].
The corresponding values for `CC(C)N(C)Cc1ccc(COC(=O)C(O)(c2ccccc2)C2CCCC2)o1` (stereo not given) are 7.7, 7.4 and 7.2.
Turning to `O=C(OCc1ccc(CN2CCC(O)CC2)o1)C(O)(c1ccccc1)C1CCCCC1` (stereo not given), the negative logarithm of the Kb (pKb) is 6.8 in assay [1], 7 in assay [2] and 6.3 in assay [3].
The corresponding values for `CN(Cc1ccc(COC(=O)C(O)(c2ccccc2)C2CCCCC2)o1)C1CCCCC1` (stereo not given) are 7, 7.7 and 6.
The corresponding values for `CN(C)Cc1ccc(COC(=O)C(O)(c2ccccc2)C2CCCC2)o1` (stereo not given) are 7.8, 7.8 and 7.7.
The corresponding values for `O=C(OCc1ccc(CN2CCNCC2)o1)C(O)(c1ccccc1)C1CCCCC1` (stereo not given) are 5.5, 5.5 and 5.
Consider `C=CCN(C)Cc1ccc(COC(=O)C(O)(c2ccccc2)C2CCCCC2)o1` (stereo not given), for which the figures for the pKb in assay [1], in assay [2] and in assay [3] were 7.8, 7.5 and 6.8, respectively.
The corresponding values for `CC(C)N(C)Cc1ccc(COC(=O)C(O)(c2ccccc2)C2CCCCC2)o1` (stereo not given) are 7.5, 7.5 and 6.4.
Taken in the same sequence, the figures for `CN(C)Cc1ccc(COC(=O)C(O)(c2ccccc2)C2CCCCC2)o1` (stereo not given) were 8.2, 8.1 and 7.2.
